{"source": "patent US20100152129A1", "about": "“Novel synergistic combination of gemcitabine with P276-00 or P1446A in treatment of cancer” (priority 2008, published 2010)", "system": "Panc-1 cells", "assay": "CCK-8 based cytotoxicity assay", "assay_type": "cell-based", "excerpt": "The combination of Gemcitabine with P1446A was screened for its synergistic effect in Panc-1 by CCK-8 (Cell counting kit-8) based cytotoxicity assay. CCK-8 based cytotoxicity assay is a sensitive nonradioactive colorimetric assay for determining the number of viable cells in cell proliferation and cytotoxicity assays. WST-8 (2-(2-methoxy-4-nitrophenyl)-3-(4-nitrophenyl)-5-(2,4-disulfophenyl)-2H tetrazolium, monosodium salt) is bioreduced by cellular dehydrogenases to an orange formazan product that is soluble in tissue culture medium. The amount of formazan produced is directly proportional to the number of living cells.\nTest System: The Panc-1 cell line was procured from ATCC (American Tissue type Culture Collection USA, catalog number: CRL-1469) and the frozen vial was stored in liquid nitrogen container.\nMethodology: Gemcitabine at final concentrations of 1 nM, 10 nM and 100 nM and P1446A at a final concentration of 3 nM, 10 nM, 30 nM, 100 nM and 300 nM were analyzed in single dose and in all possible combinations of the dose range for the two drugs mentioned above. Panc-1 cells were seeded at a density of 3000 cells/well in a 96 well plate and allowed to recover for 24 hrs in a CO2 incubator at 37° C. […] At the end of incubation CCK-8 was added and kept at 37° C. for 3 hrs following which absorbance was measured at 450 nm.", "note": "Several values for one entry are separate records, joined by “and”; a condition that tells them apart may be missing. Equal values may be shown once."}
{"smiles": "CN1CC[C@@H](c2c(O)cc(O)c3c(=O)cc(-c4ccc(C(F)(F)F)cc4Cl)oc23)[C@@H]1CO.Cl", "note": "(relative stereo) [P1446A]", "values": [{"measurement": "% Cytotoxicity", "setting": "P1446A 30 nM, 48 hrs", "value": 14.163, "unit": "%"}, {"measurement": "% Cytotoxicity", "setting": "P1446A 100 nM, 72 hrs, hydrochloride", "value": "29.6% and 29.603%"}]}
